Laboratory results reported in the supplement of paper PMC9334596.
This list holds what a sample rich in highest values left over.

Test system: mPer2Luc MEF
Assay: PER2::LUC luminescence relative to vehicle control (fold of vehicle); higher = higher PER2::LUC reporter signal
Conditions: 10 µM
In short: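 Compounds from commercial libraries were added at 10 μM to 384-well plates seeded 48 h earlier with ~3000 mPer2Luc mouse embryonic fibroblasts per well. The cells were kept in DMEM with 10% FBS at 37 °C and 5% CO2. Luminescence was read with ONE-Glo 24 h and 30 h after treatment, then an alamarBlue viability assay was run. Values are PER2::LUC luminescence relative to vehicle control, as fold change.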

With `N/C(=N/CCc1ccc(I)cc1)SCCCc1cnc[nH]1` the “PER2::LUC luminescence” value (time after treatment 24 h) was 0.772 and the “PER2::LUC luminescence” value (time after treatment 30 h) was 0.849.
